Measured values taken from patent US8530663B2, “1-(2-phenoxymethylheteroaryl)piperidine and piperazine compounds” (Theravance, Inc., priority 2010, dated 2013).
Marks after values point to notes of the source that are not given here.

Protein sequences, listed by entry. Tags and fused reporters are not part of them.
UniProt P31645, whole entry: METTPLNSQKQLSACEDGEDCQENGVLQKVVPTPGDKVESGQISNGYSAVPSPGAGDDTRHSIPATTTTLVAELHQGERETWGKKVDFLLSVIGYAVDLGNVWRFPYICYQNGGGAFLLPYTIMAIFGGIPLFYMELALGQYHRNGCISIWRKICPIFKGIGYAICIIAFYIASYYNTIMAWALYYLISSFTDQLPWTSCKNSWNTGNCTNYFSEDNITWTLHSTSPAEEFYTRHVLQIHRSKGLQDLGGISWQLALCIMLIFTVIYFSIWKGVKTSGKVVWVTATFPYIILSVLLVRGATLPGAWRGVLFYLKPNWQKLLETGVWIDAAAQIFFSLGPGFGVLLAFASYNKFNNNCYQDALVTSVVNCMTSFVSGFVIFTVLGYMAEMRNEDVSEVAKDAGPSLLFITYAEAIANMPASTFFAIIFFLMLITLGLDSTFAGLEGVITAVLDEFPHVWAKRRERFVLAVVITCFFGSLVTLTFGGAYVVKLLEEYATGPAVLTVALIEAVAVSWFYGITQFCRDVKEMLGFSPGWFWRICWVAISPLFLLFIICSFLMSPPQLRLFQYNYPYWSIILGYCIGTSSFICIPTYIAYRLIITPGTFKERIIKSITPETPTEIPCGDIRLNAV
UniProt P23975, whole entry: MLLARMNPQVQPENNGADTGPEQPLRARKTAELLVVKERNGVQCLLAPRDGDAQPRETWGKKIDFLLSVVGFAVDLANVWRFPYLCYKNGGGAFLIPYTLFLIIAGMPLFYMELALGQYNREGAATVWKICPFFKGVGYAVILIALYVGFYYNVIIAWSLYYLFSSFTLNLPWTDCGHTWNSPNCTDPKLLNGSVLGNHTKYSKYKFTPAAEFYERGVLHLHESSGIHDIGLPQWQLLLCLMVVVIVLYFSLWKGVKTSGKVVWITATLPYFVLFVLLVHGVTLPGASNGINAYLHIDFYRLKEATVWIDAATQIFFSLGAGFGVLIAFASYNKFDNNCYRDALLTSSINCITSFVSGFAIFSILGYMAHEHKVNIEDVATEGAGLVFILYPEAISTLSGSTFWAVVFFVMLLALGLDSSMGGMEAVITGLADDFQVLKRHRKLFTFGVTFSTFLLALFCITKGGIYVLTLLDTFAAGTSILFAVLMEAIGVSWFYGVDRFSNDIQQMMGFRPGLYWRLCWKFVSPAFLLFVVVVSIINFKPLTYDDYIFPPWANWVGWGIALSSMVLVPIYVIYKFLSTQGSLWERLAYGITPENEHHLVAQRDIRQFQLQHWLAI

Key:
hSERT [1] = biological target: T1, hSERT (Homo sapiens, UniProt P31645); experiment: fluorescence-based serotonin reuptake assay (Tsuruda et al. 2010; data with asterisk); details: serotonin reuptake inhibition, fluorescence-based assay (data indicated by an asterisk)
hNET [2] = biological target: T2, hNET (Homo sapiens, UniProt P23975); experiment: fluorescence-based norepinephrine reuptake assay (Tsuruda et al. 2010; data with asterisk); details: norepinephrine reuptake inhibition, fluorescence-based assay (data indicated by an asterisk)
hSERT [3] = biological target: T1, hSERT; experiment: hSERT membrane radioligand binding assay (3H-citalopram); details: hSERT membranes, 1.0 nM 3H-citalopram
hNET [4] = biological target: T2, hNET; experiment: hNET membrane radioligand binding assay (3H-nisoxetine); details: hNET membranes, 1.0 nM 3H-nisoxetine

Structure (SMILES): Fc1cc(F)c(OCc2ccoc2C2CCNCC2)c(F)c1
- SERT pIC50 (hSERT [1]): ≧7.0*
- NET pIC50 (hNET [2]): ≧7.0*

Structure (SMILES): Fc1ccc(F)c(OCc2ccsc2C2CCNCC2)c1Cl
- SERT pKi (hSERT [3]): ≧7.0
- NET pKi (hNET [4]): ≧6.0

Structure (SMILES): Fc1ccc(F)c(OCc2cccnc2C2CCNCC2)c1Cl
- SERT pKi (hSERT [3]): ≧7.0
- NET pKi (hNET [4]): ≧7.0

Structure (SMILES): Clc1cccc(Cl)c1OCc1ccoc1C1CCNCC1
- SERT pIC50 (hSERT [1]): ≧6.0*
- NET pIC50 (hNET [2]): ≧6.0*

Structure (SMILES): Fc1ccc(F)c(OCc2sccc2C2CCNCC2)c1Cl
- SERT pKi (hSERT [3]): ≧7.0
- NET pKi (hNET [4]): ≧5.0
